Assays:
[1] = molecular target: T1, ROCK2 (Homo sapiens (Human), UniProt O75116); experiment: ROCK2 ADP-Glo kinase enzyme inhibition assay; type: biochemical; details: read-out: ROCK2 IC50, Example 17, compounds I to XII
[2] = tested on: Phospho-MYPT1 Thr853; experiment: Inhibition of MYPT1 phosphorylation in human trabecular meshwork (hTM) cells, western blot; details: 10 μM to 0.04 μM, fifteen hours, tested form: 2HCl
[3] = molecular target: T1, ROCK2; experiment: Radioisotope filter binding kinase assay; type: biochemical; details: read-out: IC50 estimates, ROCK2, 10 uM ATP, tested form: 2HCl
[4] = molecular target: PKCtheta (Homo sapiens (Human), UniProt Q04759); experiment: Radioisotope filter binding kinase assay; type: biochemical; details: read-out: IC50 estimates, PKCtheta, 10 uM ATP, tested form: 2HCl
[5] = molecular target: MRCKa (Homo sapiens (Human), UniProt Q5VT25); experiment: Radioisotope filter binding kinase assay; type: biochemical; details: read-out: IC50 estimates, MRCKa, 10 uM ATP, tested form: 2HCl
[6] = molecular target: ROCK1 (Homo sapiens (Human), UniProt Q13464); experiment: Radioisotope filter binding kinase assay; type: biochemical; details: read-out: IC50 estimates, ROCK1, 10 uM ATP, tested form: 2HCl
[7] = molecular target: PKA (Homo sapiens (Human), UniProt P17612); experiment: Radioisotope filter binding kinase assay; type: biochemical; details: read-out: IC50 estimates, PKA, 10 uM ATP, tested form: 2HCl
[8] = tested on: hTM cells; experiment: hTM cell morphology changes (microscopy); type: cell-based, human; details: hTM cells, 30, 10, 3.33, or 1.11 μM, 24 hours; tested form: 2HCl
[9] = tested on: New Zealand White rabbits; experiment: Acute eye irritation/corrosion, OECD Guideline 405; details: 0.1 ml, 20 mg/ml in saline; tested form: 2HCl
[10] = tested on: primary hTM cells; experiment: RealTime-Glo MT cell viability assay in hTM cells; type: cell-based; details: 30 μM, after 48 to 72 hours incubation, tested form: 2HCl
Description: Commercially available RealTime-Glo™ MT cell viability (Promega, catalog #G9712) and CellTox™ Green cytotoxicity (Promega, catalog #G8731) assays were used in assessing effect of compounds on primary hTM cell viability and cytotoxicity. The RealTime-Glo™ MT cell viability assay is a nonlytic, homogeneous, bioluminescent method that determines the number of viable cells in culture by measuring the reducing potential of cells and thus metabolism (MT). Viable cells reduce the proprietary pro-substrate to generate a substrate for NanoLuc® luciferase. This substrate diffuses from cells into the surrounding culture medium, where it is rapidly used by the NanoLuc® Enzyme to produce a luminescent signal. In a contrasting and complementary manner, CellTox™ Green cytotoxicity assay measures changes in membrane integrity that occur as a result of cell death. This assay system uses a proprietary asymmetric cyanine dye that is excluded from viable cells but preferentially stains the dead cells' DNA. […]
Human™ cells were cultured and maintained as described in Example 12. […] Light emitted by luciferase and fluorescence emitted by dye binding to DNA (excitation 485 nm and emission 525 nm) were measured at 24 h, 48 h, and 72 h after incubation using plate based luminescence and fluorescence plate readers.

Amino acid sequences for entries named in this document (tags omitted). Residues count along the entry.
UniProt O75116, whole entry: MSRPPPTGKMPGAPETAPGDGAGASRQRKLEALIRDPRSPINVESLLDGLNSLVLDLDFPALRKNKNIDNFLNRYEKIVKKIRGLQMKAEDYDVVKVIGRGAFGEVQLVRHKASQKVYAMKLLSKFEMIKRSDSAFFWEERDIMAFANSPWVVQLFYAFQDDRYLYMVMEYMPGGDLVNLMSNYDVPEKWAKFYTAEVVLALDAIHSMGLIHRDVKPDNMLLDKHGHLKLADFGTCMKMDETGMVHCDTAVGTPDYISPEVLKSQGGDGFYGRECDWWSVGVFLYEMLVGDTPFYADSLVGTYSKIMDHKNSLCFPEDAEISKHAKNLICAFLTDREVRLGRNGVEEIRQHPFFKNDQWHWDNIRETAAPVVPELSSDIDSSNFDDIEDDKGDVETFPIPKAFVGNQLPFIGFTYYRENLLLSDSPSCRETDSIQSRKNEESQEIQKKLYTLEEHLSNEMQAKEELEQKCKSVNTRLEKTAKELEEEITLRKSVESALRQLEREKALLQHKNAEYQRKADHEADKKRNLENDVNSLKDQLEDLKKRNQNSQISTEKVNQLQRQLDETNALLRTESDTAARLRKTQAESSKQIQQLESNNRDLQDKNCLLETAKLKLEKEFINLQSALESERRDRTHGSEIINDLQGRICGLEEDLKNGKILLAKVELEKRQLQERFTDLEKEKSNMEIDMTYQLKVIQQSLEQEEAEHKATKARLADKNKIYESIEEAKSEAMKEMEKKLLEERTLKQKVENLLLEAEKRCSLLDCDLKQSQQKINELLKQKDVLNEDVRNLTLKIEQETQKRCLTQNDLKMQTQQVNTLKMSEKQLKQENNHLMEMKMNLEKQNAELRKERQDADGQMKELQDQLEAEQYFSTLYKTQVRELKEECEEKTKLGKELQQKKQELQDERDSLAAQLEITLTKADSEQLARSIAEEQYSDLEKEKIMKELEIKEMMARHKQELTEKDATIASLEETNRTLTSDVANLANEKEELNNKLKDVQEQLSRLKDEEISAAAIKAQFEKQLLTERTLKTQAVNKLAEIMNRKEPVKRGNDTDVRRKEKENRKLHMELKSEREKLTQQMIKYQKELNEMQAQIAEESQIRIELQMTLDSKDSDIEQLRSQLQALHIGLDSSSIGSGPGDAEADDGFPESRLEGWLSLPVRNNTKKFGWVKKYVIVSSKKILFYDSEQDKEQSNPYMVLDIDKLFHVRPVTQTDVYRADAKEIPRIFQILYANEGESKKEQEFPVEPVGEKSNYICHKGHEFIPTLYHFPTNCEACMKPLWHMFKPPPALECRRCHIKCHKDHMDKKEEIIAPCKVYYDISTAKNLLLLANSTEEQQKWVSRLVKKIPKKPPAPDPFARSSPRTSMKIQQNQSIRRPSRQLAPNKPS
UniProt Q04759, whole entry: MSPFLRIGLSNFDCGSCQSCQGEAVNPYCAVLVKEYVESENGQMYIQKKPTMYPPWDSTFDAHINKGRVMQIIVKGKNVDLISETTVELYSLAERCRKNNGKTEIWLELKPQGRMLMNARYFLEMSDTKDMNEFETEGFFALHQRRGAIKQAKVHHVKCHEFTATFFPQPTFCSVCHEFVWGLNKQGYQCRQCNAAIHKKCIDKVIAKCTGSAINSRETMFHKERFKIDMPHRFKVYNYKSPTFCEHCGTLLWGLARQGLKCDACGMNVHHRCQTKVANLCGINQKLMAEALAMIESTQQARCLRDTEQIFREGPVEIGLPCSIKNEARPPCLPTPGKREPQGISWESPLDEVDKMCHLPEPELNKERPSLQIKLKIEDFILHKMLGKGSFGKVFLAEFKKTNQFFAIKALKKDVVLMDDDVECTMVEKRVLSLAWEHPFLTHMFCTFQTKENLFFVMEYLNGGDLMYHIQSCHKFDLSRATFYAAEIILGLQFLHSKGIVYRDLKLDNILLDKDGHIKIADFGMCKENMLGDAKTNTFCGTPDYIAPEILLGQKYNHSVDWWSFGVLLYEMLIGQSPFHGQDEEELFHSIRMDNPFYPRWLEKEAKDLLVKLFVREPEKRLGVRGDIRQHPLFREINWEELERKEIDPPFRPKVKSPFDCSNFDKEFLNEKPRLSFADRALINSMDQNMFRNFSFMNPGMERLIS
UniProt Q5VT25, whole entry: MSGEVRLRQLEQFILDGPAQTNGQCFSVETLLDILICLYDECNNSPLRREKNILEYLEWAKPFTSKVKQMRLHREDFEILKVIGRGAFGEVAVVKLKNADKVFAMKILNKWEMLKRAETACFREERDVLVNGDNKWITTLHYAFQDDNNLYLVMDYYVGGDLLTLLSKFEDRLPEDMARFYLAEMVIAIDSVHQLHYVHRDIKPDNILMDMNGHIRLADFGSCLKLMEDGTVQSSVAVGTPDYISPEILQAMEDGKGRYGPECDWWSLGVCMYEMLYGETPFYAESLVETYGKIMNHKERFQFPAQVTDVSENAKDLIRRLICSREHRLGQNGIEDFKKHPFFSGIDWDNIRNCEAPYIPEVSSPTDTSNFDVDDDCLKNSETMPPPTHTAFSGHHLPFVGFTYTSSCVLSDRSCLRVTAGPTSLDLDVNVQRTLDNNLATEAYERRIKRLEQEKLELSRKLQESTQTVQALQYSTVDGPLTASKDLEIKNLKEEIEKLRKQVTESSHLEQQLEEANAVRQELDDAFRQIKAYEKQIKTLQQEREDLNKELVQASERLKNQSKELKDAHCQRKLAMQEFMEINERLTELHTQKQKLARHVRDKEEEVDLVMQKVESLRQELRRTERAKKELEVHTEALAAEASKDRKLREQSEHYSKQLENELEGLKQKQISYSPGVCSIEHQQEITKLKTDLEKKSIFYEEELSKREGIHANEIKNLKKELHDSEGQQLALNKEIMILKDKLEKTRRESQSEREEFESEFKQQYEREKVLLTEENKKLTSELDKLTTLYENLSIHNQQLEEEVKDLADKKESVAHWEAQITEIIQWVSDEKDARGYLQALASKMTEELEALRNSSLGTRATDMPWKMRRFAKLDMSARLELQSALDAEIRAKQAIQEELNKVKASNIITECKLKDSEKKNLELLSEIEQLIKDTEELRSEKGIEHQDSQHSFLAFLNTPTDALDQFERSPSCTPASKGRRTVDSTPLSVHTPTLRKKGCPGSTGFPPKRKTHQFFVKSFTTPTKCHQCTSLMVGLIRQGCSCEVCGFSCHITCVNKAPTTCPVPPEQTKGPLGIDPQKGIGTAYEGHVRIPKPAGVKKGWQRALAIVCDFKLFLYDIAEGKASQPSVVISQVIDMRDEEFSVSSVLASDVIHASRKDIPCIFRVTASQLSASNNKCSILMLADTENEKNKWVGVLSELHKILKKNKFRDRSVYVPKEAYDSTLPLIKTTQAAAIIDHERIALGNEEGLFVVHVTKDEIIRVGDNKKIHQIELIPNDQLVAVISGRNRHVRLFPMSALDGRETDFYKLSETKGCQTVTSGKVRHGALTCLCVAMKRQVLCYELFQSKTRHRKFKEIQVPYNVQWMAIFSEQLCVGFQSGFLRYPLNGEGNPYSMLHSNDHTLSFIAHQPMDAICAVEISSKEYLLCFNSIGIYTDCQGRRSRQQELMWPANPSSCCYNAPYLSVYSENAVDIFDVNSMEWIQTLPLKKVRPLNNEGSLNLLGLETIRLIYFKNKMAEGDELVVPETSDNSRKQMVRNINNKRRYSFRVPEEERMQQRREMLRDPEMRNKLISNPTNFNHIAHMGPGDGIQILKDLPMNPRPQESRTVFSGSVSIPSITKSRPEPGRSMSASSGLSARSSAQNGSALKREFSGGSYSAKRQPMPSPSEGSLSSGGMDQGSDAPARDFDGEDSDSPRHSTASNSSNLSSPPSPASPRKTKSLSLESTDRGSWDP
UniProt Q13464, 2-1354 limits assumed: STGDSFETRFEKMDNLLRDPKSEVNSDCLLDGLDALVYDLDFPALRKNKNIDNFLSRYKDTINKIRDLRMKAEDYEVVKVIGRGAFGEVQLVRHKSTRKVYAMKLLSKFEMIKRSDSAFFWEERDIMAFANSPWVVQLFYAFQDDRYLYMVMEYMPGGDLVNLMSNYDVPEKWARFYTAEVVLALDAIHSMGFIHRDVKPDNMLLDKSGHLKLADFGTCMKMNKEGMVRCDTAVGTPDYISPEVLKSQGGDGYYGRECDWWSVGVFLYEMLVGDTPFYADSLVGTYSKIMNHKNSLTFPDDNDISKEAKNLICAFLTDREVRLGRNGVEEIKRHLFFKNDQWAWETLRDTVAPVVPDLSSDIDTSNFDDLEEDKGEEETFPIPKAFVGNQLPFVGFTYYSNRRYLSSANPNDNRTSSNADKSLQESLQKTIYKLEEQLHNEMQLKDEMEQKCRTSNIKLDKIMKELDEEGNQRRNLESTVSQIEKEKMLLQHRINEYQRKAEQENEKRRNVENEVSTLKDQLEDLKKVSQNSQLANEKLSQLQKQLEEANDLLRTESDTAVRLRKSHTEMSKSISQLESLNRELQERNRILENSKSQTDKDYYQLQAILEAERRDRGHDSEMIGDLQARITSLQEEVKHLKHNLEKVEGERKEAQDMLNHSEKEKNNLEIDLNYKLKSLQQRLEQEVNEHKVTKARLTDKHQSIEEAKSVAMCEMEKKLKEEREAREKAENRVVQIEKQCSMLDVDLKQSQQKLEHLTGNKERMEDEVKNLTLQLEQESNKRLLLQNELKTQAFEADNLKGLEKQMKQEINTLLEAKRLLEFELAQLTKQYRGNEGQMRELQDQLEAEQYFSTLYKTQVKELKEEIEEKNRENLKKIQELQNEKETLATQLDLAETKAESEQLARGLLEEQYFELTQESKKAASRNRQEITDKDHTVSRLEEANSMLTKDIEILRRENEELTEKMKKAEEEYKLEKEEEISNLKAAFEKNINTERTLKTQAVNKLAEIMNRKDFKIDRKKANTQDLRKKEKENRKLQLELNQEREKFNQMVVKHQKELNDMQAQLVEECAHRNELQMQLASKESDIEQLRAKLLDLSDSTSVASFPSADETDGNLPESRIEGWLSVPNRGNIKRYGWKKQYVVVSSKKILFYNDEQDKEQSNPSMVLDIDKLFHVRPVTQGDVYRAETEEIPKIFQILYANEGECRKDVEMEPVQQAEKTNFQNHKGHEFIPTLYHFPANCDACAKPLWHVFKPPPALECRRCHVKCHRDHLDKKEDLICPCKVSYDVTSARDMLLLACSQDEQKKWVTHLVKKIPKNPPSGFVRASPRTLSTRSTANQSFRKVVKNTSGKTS

[11] = tested on: New Zealand White rabbits; experiment: Normotensive rabbit IOP studies; type: in vivo; details: tested form: 2HCl
Description: For these efficacy studies methods were followed as described in (Jacob et al, A promising drug candidate for the treatment of glaucoma based on a P2Y6-receptor agonist, Purinergic Signal. 2018 September; 14 (3): 271-284). In all studies, male New Zealand White rabbits were acclimatized for one week before the study. Animals were given food and water ad libitum. Body weights of rabbits ranged from 2 to 3 kg. Animals were trained for the IOP measurement procedure during the acclimation period in order to reduce stress and obtaining more accurate measurements during the study. IOP measurements were taken using the Icare® TONOVET Plus tonometer. […] The technique of use of the […] tonometer in rabbits was described previously (Gloe et al, Validation of the Icare® TONOVET Plus Rebound Tonometer in Normal Rabbit Eyes, Exp Eye Res. 2019 August; 185:107698). IOP readings are obtained only when the tonometer is held an appropriate distance and in the correct plane relative to the ocular surface. Green light appears when the orientation is correct, thereby minimizing operator errors. Measurements were performed at the same time of day by the same person using the same instrument. Normotensive rabbit studies. […] In experiment 1 of the normotensive study, the effect of compound I.2HCl was measured at two doses of 1 mg/ml (2.34 mM) and 0.5 mg/ml (1.17 mM). Compound I.2HCl prepared in saline was applied to the right eye, as a once daily, 30 μL eye drop application in the morning on days 1, 2 and 3. IOP measurements were taken before test article addition (0 h) and at 1, 2, 4, 6, and 8 hours after addition on days 1 and 3. On day 2, only a 0 h reading was taken. This was done to minimize stress on the animals and to compare day 2-0 h and day 3-0 h readings without handling rabbits between applications. […] Twenty four hours after the instillation, IOP increased but still remained below normal levels. At 1 mg/ml dose, the IOP remained lower than normal levels on day 3; compound application on day 3 further reduced IOP. At 0.5 mg/ml dose, the IOP reached normal levels by day 3 but IOP reduced to same levels as 1 mg/ml dose after compound instillation. […] Similar to Experiment 1 of the normotensive study, compounds were applied once daily in the right eye in the morning on days 1, 2 and 3, whereas the left eye served as a control with application of Refresh Tears™. IOP measurements were taken at 0, 1, 2, 4, 6, and 8 hours on days 1 and 3, and 0 hours on day 2.

Which IC50 ([1]; tested form: 2HCl) does the source give for CC1(C)OB(c2ccc(C(CN)C(=O)Nc3ccc4cnccc4c3)cc2)OC1(C)C (racemic) here?
Its IC50 is 34 nM.

For Cc1ccc(C(CN)C(=O)Nc2ccc3cnccc3c2)cc1B1OC(C)(C)C(C)(C)O1 (stereo not drawn), which IC50 ([1]; tested form: 2HCl) is on record?
The IC50 was 8 nM.

How did the IC50 ([1]; tested form: 2HCl) turn out when Cc1ccc(C(CN)C(=O)Nc2ccc3cnccc3c2)cc1B(O)O (racemic) was run?
Its IC50 is 8 nM.

Which IC50 ([1]; tested form: 2TFA) does the source give for Cc1ccc(C(CN)C(=O)Nc2ccc3cnccc3c2)cc1B1OC(C)(c2ccccc2)C(C)(c2ccccc2)O1 (stereo not drawn) here?
The IC50 was 22 nM.

How did the IC50 ([1]; tested form: 2HCl) turn out when Cc1cc(C(CN)C(=O)Nc2ccc3cnccc3c2)ccc1B(O)O (racemic) was run?
Its IC50 is 47 nM.

What about the “Inhibition of MYPT1 phosphorylation at lower concentrations, compared to other compounds” value [2] of the same compound?
Its value is “less effective at lower concentrations in inhibiting MYPT1 phosphorylation”.

How did the IC50 ([1]; tested form: 2HCl) turn out when COc1ccc(B2OC(C)(C)C(C)(C)O2)cc1C(CN)C(=O)Nc1ccc2cnccc2c1 (racemic) was run?
The IC50 was 638 nM.

For COc1ccc(B(O)O)cc1C(CN)C(=O)Nc1ccc2cnccc2c1 (racemic), which IC50 ([1]; tested form: 2HCl) is on record?
The IC50 was 217 nM.

Which IC50 ([1]; tested form: 2HCl) does the source give for NCC(C(=O)Nc1ccc2cnccc2c1)c1cc(F)cc(B(O)O)c1 (racemic) here?
Its IC50 is 27 nM.

With COc1ccc(C(CN)C(=O)Nc2ccc3cnccc3c2)cc1B(O)O (racemic) as the compound, how does the IC50 ([1]; tested form: 2HCl) read?
The IC50 was 43 nM.

With NCC(C(=O)Nc1ccc2cnccc2c1)c1ccc(B(O)O)cc1F (racemic) as the compound, how does the IC50 ([1]; tested form: 2HCl) read?
The IC50 was 58 nM.

How did the IC50 ([1]; tested form: 2HCl) turn out when CC1(c2ccccc2)OB(c2ccc(C(CN)C(=O)Nc3ccc4cnccc4c3)cc2)OC1(C)c1ccccc1 (stereo not drawn) was run?
Its IC50 is 56 nM.

What does the source list for NCC(C(=O)Nc1ccc2cnccc2c1)c1cccc(B(O)O)c1 (racemic)?
IC50 [3]: 2 nM; IC50 [4]: 817 nM; IC50 [5]: > 10000 nM; IC50 [6]: 4 nM; IC50 [7]: 6 nM; IC50 ([1]; tested form: 2HCl): 18 nM; cellular morphological changes [8]: beginning to show cell contraction; clinical signs of toxicity, morbidity and mortality [9]: No treatment-related adverse effects were noticed; reduction in viability [10]: 35%; IOP level on day 3 ([11]; experiment 1, 0.5 mg/ml dose): reached normal levels by day 3; Effect on IOP ([11]; experiment 1, 1 mg/ml (2.34 mM) and 0.5 mg/ml (1.17 mM) in saline, once daily 30 μL eye drop): significantly reduced IOP with 2 hours after the instillation on day 1; IOP level on day 3 ([11]; experiment 1, 1 mg/ml dose): remained lower than normal levels on day 3; IOP reduction ([11]; experiment 1, both doses (1 mg/ml and 0.5 mg/ml)): 35%; Effect on IOP ([11]; experiment 2, 0.83 mM in 0.5% carboxymethylcellulose (Refresh Tears), once daily): reduced IOP significantly within 2 hours after application on day 1; IOP effect compared to the other compounds ([11]; experiment 2, 0.83 mM): much more pronounced

— patent US12479866B2, “Boron-containing rho kinase inhibitors” (Percipiad, Inc., priority 2019, dated 2025)
